Data: US20260125400A1, “TYK2 DEGRADERS AND USES THEREOF” (Kymera Therapeutics, Inc., priority 2023, published 2026)
Like-named read-outs stand apart in the source and are kept apart here.

The chains behind the UniProt entries cited, without tags or fusion partners.
UniProt P29597, whole entry: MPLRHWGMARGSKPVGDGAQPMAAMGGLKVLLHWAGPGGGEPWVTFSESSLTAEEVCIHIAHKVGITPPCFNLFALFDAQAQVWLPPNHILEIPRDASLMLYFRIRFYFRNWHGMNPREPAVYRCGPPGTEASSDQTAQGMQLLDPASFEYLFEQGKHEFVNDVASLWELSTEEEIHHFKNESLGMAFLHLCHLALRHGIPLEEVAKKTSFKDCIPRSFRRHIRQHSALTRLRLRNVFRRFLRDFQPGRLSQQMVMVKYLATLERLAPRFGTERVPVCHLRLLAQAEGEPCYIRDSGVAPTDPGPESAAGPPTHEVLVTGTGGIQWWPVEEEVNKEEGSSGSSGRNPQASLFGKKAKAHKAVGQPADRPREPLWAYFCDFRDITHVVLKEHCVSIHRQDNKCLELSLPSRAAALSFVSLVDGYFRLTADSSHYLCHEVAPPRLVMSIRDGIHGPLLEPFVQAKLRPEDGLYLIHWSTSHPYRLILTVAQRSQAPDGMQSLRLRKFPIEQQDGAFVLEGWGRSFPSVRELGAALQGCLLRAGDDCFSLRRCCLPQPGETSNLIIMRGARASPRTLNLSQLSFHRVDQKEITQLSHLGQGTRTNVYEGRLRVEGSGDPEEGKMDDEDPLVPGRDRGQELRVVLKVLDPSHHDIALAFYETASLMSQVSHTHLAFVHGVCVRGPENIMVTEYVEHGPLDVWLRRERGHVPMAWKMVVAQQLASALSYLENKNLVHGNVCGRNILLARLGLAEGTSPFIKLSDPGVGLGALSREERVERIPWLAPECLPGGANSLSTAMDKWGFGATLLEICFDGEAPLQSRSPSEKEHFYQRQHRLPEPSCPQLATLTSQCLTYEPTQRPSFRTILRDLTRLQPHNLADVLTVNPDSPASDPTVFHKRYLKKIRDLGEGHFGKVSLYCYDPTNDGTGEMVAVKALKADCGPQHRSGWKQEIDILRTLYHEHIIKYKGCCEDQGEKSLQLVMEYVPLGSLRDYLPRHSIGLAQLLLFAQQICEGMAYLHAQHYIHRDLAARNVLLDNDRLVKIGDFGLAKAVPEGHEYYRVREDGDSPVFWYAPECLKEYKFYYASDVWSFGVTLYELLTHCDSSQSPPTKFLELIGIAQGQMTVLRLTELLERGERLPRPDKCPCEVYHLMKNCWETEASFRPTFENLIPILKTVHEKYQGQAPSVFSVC

Biological target: TYK2 (Homo sapiens, UniProt P29597)
Test: TYK2 MSD degradation in OCI-LY10 cells
Settings: for TYK2 MSD OCI-LY10 Dmax %: 4 to 24 hours incubation
Experimental: Example 7. TYK2 MSD Degradation
Degradation of TYK2 in cells was quantitatively measured using Meso Scale Discovery (MSD) technology. OCI-LY10 cells were seeded in 96-well plates with a density of 0.4 million cells per well in 100 μl fresh media. Compounds were then added to the assay plates with a final top concentration of 1 to 10 μM in a 1:3 dilution series with total of 9 doses. The assay plates were then incubated for 4 to 24 hours at 37° C. under […]. The assay plates were then centrifuged for 5 minutes, and the cell pellets were treated with 100 μl/well RIPA lysis buffer (Boston Bioproducts, BP-115D) with protease and phosphatase inhibitors (Roche, 05892791001 and 04906837001). To prepare MSD assay plates (MSD, L15XA), the plates were coated with the capture antibody (Santa Cruz Biotechnology, SC-5271) in PBS, at 40 μl/well. The plates were then incubated overnight at 4° C., washed 3 times with 150 μl/well TBST buffer (Cell Signaling Technology, 9997S) and blocked with 150 μl/well blocking buffer (MSD, R93BA-4). Cell lysates were then added to MSD assay plates and the plates were incubated at room temperature for 1 hour. The plates were then washed 3 times with 150 μl/well TBST buffer and 25 μl/well primary detection antibody (Cell Signaling Technology, #9312). The assay plates were then incubated at room temperature for 1 hour, washed 3 times with 150 μl/well TBST buffer, and 25 μl/well secondary detection antibody, SULFO-TAG anti-rabbit antibody (MSD, R32AB-1) were added. The assay plates were then incubated at room temperature for 1 hour, washed 3 times with 150 μl/well TB ST buffer, and 150 μl/well MSD reading buffer (MSD, R92TC-2) were added. The plates were then analyzed by an MSD reader. The data was analyzed by GraphPad Prism and the dose dependent TYK2 degradation was fit using the four-parameter inhibitor vs. response nonlinear regression.
The letter codes for TYK2 DC50 include: A (<1 nM); B (i to <10 nM); C (10 to 100 nM); D (>100 nM); and E (not tested). The letter codes for TYK2 Dmax % include: A (>90%); B (90 to >75%); C (75 to 50%); D (<50%); and E (not tested).

[1] = TYK2 degradation in OCI-LY10 cells
[2] = read-out: TYK2 MSD OCI-LY10 Rel-DC50, TYK2 degradation in OCI-LY10 cells, 4 to 24 hours incubation
[3] = read-out: TYK2 MSD OCI-LY10 Rel-DC50, OCI-LY10 cells, 4 to 24 hours incubation

SMILES | TYK2 MSD OCI-LY10 Dmax % [1] | DC50 [2] | TYK2 MSD OCI-LY10 Dmax % (OCI-LY10 cells) | DC50 [3]
CNc1cc(N2CCc3c([C@@H]4CCN(CC5CCN(c6ccc7c(c6)n(C)c(=O)n7C6CCC(=O)NC6=O)CC5)C4)cccc32)nn2c(C(=O)NC3CC3)cnc12 (stereo partly drawn) | C (C (75 to 50%)) | < 1 nM | – | –
CNc1cc(N2CCc3c(-c4ccc([C@H](C)N5CC6(CCN(C(=O)c7ccc(Cl)c(N8CCC(=O)NC8=O)c7)CC6(F)F)C5)cn4)cccc32)nn2c(C(=O)N[C@@H]3CC[C@H]3OC)cnc12 | A (A (>90%)) | < 1 nM | – | –
CNc1cc(N2CCc3c(CN4CCC(N5CCC6(CCN(C(=O)c7cc(Cl)c(C)c(N8CCC(=O)NC8=O)c7)CC6)CC5)C(F)(F)C4)cccc32)nn2c(C(=O)N[C@@H]3CC[C@H]3OC)cnc12 (stereo partly drawn) | – | – | A (A (>90%)) | < 1 nM
COC1(c2cc(C)cc(-c3cn(CCC4CCN(CC5CCN(c6ccc7c(c6)n(C)c(=O)n7C6CCC(=O)NC6=O)CC5)CC4)c4cnc(NC(C)=O)cc34)n2)CCOC1 (stereo not drawn) | B (B (90 to >75%)) | < 1 nM | – | –
CNc1cc(N2CCc3c(-c4ccc(N5CCC6(CC5)CN(Cc5ccc(C7CCC(=O)NC7=O)c(Cl)c5)C6)cn4)cccc32)nn2c(C(=O)N[C@@H]3C[C@@H]3F)cnc12 (stereo partly drawn) | – | – | D (D (<50%)) | < 10 nM
CNc1cc(N2CC3(CCN(C4CCN(c5ccc6c(c5)n(C)c(=O)n6C5CCC(=O)NC5=O)CC4)CC3)c3ccccc32)nn2c(C(=O)NC3CC3)cnc12 (stereo not drawn) | D (D (<50%)) | > 100 nM | – | –
CCNC(=O)c1nnc(Nc2ccc(CN3CCC4(CN(c5ccc(NC6CCC(=O)NC6=O)cc5F)C4)C(F)(F)C3)cn2)cc1Nc1cccc(F)c1OC (stereo not drawn) | D (D (<50%)) | > 100 nM | – | –
CNc1cc(N2CCc3c(CN4CC[C@H](N5CCC(CC6CCN(C(=O)c7cc(N8CCC(=O)NC8=O)c(Cl)c(C)n7)CC6)CC5)C(F)(F)C4)cccc32)nn2c(C(=O)N[C@@H]3CC[C@H]3OC)cnc12 | B (B (90 to >75%)) | < 10 nM | – | –
CNc1cc(N2CCc3c(-c4cc(CN5CCN(CC#Cc6cccc(N7CCC(=O)NC7=O)c6C)CC5)ccn4)cccc32)nn2c(C(=O)N[C@@H]3C[C@@H]3F)cnc12 | D (D (<50%)) | > 100 nM | – | –
CO[C@@]1(c2cc(C)cc(-c3cn(C4CCN(CC5CCN(c6cccc7c6n(C)c(=O)n7C6CCC(=O)NC6=O)CC5)CC4)c4cnc(NC(C)=O)cc34)n2)CCOC1 (stereo partly drawn) | A (A (>90%)) | < 1 nM | – | –
CNc1cc(N2CCc3c(N4CCC[C@H](CN5CCN(c6ccc7c(c6)n(C)c(=O)n7C6CCC(=O)NC6=O)CC5)C4)cccc32)nn2c(C(=O)NC3CC3)cnc12 (stereo partly drawn) | D (D (<50%)) | > 100 nM | – | –
CNc1cc(N2CCc3c(CN4CCC(N5CCC6(CCN(C(=O)c7cc(C)c(Cl)c(N8CCC(=O)NC8=O)c7)CC6)CC5)C(F)(F)C4)cccc32)nn2c(C(=O)N[C@@H]3CC[C@H]3OC)cnc12 (stereo partly drawn) | – | – | A (A (>90%)) | < 1 nM
CNc1cc(N2CCc3c(-c4ccc(N5CC6(CCN(C(=O)c7ccc(Cl)c(C8CCC(=O)NC8=O)c7)CC6)C5)cn4)cccc32)nn2c(C(=O)N[C@@H]3C[C@@H]3F)cnc12 (stereo partly drawn) | – | – | D (D (<50%)) | < 10 nM
CNc1cc(N2CCc3c(-c4ccc(CN5CCC6(CCN(C(=O)c7ccc(OC)c(N8CCC(=O)NC8=O)c7)CC6)C(F)(F)C5)cn4)cccc32)nn2c(C(=O)N[C@@H]3C[C@@H]3F)cnc12 | – | – | B (B (90 to >75%)) | < 10 nM
CO[C@@]1(c2cc(C)cc(-c3cn(C4CCN(CC5CCN(c6ccc7c(c6)n(C)c(=O)n7C6CCC(=O)NC6=O)CC5)CC4)c4cnc(NC(C)=O)cc34)n2)CCOC1 (stereo partly drawn) | C (C (75 to 50%)) | < 1 nM | – | –
CNc1cc(N2CCc3c(-c4cnc(CN5CCC6(CCN(C(=O)c7cc(N8CCC(=O)NC8=O)c(C)cc7F)CC6)C(F)(F)C5)cn4)cccc32)nn2c(C(=O)N[C@@H]3CC[C@H]3OC)cnc12 | A (A (>90%)) | < 1 nM | – | –
CNc1cc(N2CCc3c(-c4ccc(CN5CCC6(CCN(C(=O)c7ccc(Cl)c(N8CCC(=O)NC8=O)c7)CC6)C(F)(F)C5)cn4)cccc32)nn2c(C(=O)N[C@@H]3CC[C@H]3OC)cnc12 | – | – | B (B (90 to >75%)) | < 1 nM
CNc1cc(N2CCc3c(CN4CCC(N5CC6(CC(N7CCN(c8ccc9c(c8)n(C)c(=O)n9C8CCC(=O)NC8=O)CC7)C6)C5)C(F)(F)C4)cccc32)nn2c(C(=O)N[C@@H]3C[C@@H]3F)cnc12 (stereo partly drawn) | B (B (90 to >75%)) | < 1 nM | – | –
CNc1cc(N2CCc3c(-c4ncc(CN5CC6(CCN(C(=O)c7cc(N8CCC(=O)NC8=O)c(Cl)cn7)CC6(F)F)C5)cc4F)cccc32)nn2c(C(=O)N[C@@H]3C[C@@H]3F)cnc12 | B (B (90 to >75%)) | < 1 nM | – | –
CNc1cc(N2CCc3c(CN4CC[C@H](N5CCC6(CCN(C(=O)c7cc(N8CCC(=O)NC8=O)c(Cl)c(C)n7)CC6)CC5)C(F)(F)C4)cc(F)cc32)nn2c(C(=O)N[C@@H]3CC[C@H]3OC)cnc12 | A (A (>90%)) | < 1 nM | – | –
CCNC(=O)c1nnc(Nc2ccc(CN3CCC4(CN(c5cc(F)cc(NC6CCC(=O)NC6=O)c5)C4)C(F)(F)C3)cn2)cc1Nc1cccc(F)c1OC (stereo not drawn) | D (D (<50%)) | > 100 nM | – | –
CNc1cc(N2CCc3c(CN4CCC(N5CCC6(CCN(C(=O)c7ccc(Cl)c(N8CCC(=O)NC8=O)c7)CC6)CC5)C(F)(F)C4)cc(F)cc32)nn2c(C(=O)N[C@@H]3CC[C@H]3OC)cnc12 (stereo partly drawn) | A (A (>90%)) | < 1 nM | – | –
CNc1cc(N2CCc3c(CN4CCC(CN5CCC6(CC5)CCN(C(=O)c5cc(Cl)c(C)c(N7CCC(=O)NC7=O)c5)CC6)C(F)(F)C4)cccc32)nn2c(C(=O)N[C@@H]3CC[C@H]3OC)cnc12 (stereo partly drawn) | A (A (>90%)) | < 1 nM | – | –
CNc1cc(N2CCc3c(CN4CCC(N5CCC(CC6CCN(C(=O)c7cc(Cl)c(C)c(N8CCC(=O)NC8=O)c7)CC6)CC5)C(F)(F)C4)cccc32)nn2c(C(=O)N[C@@H]3CC[C@H]3OC)cnc12 (stereo partly drawn) | A (A (>90%)) | < 10 nM | – | –
CNc1cc(N2CCc3c2cccc3C23CC(CN4CC5(CCN(C(=O)c6cc(N7CCC(=O)NC7=O)c(Cl)c(C)n6)CC5(F)F)C4)(C2)C3)nn2c(C(=O)N[C@@H]3CC[C@H]3OC)cnc12 | A (A (>90%)) | < 1 nM | – | –
CNc1cc(N2CCc3c(-c4cc(CN5CCN(Cc6ccc(Cl)c(C7CCC(=O)NC7=O)c6)CC5)ccn4)cccc32)nn2c(C(=O)N[C@@H]3C[C@@H]3F)cnc12 (stereo partly drawn) | D (D (<50%)) | > 100 nM | – | –
CNc1cc(N2CCc3c(CN4CCC(CN5CCC6(CC5)CCN(C(=O)c5cc(Cl)c(C)c(N7CCC(=O)NC7=O)c5)CC6)C(F)(F)C4)cc(F)cc32)nn2c(C(=O)N[C@@H]3CC[C@H]3OC)cnc12 (stereo partly drawn) | A (A (>90%)) | < 1 nM | – | –
CNc1cc(N2CCc3c(-c4ccc(CN5CCC(COc6ccc(C7CCC(=O)NC7=O)c(Cl)c6)CC5)cn4)cccc32)nn2c(C(=O)N[C@@H]3C[C@@H]3F)cnc12 (stereo partly drawn) | – | – | D (D (<50%)) | > 100 nM
CNc1cc(N2CCc3c(-c4ncc(CN5CC6(CCN(C(=O)c7cc(Cl)c(C)c(N8CCC(=O)NC8=O)c7)CC6(F)F)C5)cc4F)cccc32)nn2c(C(=O)N[C@@H]3CC[C@H]3F)cnc12 | A (A (>90%)) | < 1 nM | – | –
CNc1cc(N2CCc3c(CN4CC[C@H](N5CCC6(CCN(C(=O)c7cc(N8CCC(=O)NC8=O)c(Cl)c(C)n7)CC6)CC5)C(F)(F)C4)cccc32)nn2c(C(=O)N[C@@H]3CC[C@H]3OC)cnc12 | A (A (>90%)) | < 1 nM | – | –
